This passage reports inhibition results from PubChem BioAssay AID588852 (The Scripps Research Institute Molecular Screening Center, 2011).

Amino acid sequences for entries named in this document (tags omitted).
UniProt P11229, whole entry: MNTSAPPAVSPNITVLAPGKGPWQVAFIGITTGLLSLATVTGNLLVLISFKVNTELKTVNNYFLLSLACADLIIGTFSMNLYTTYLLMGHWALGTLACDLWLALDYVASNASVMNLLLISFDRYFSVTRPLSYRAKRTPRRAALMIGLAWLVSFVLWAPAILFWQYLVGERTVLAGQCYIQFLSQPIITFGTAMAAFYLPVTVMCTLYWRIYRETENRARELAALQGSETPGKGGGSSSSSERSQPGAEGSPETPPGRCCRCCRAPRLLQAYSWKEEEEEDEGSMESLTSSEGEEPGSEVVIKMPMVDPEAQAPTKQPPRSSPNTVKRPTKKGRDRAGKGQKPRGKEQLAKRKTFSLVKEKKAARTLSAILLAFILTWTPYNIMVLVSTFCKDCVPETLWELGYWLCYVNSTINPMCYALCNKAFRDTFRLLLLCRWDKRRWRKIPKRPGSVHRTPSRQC

This is a selection; strong and weak results do not stand in their true shares. Some salts and complexes are drawn in separate pieces, as the source files them; their charges need not balance. The source made the active and inactive calls.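 How the source made its calls: active means percent inhibition above its own plate's cutoff, namely the mean of that plate's compound wells plus 3 SD; inactive means the rest.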

For this experiment, the target named is Muscarinic acetylcholine receptor M1 (Homo sapiens) (UniProt P11229). The experiment is described as follows: CHRM1 blockers of acetylcholine calcium response – CHO-K1 cells, Fluo-8 calcium fluorescence, 1536-well, primary screen (AID 588852).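 Further: peak over basal fluorescence ratio during 140 s after agonist addition; 0% = ACh EC80 plus DMSO and 100% = DMSO alone without agonist.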 To be noted: CHO-K1 hM1, Fluo-8 calcium fluorescence, ACh EC80 antagonist; at 3 µM; hits give high values.
Turning to `CP(=O)(OCCOc1ccccc1)OCCOc1ccccc1`, the inhibition was inactive: -1.21%.
Consider `CCCCCCCCCCCCCCCC1C[N+](C)(C)CCOP(C)(=O)O1` (configuration not stated), for which the inhibition was active: 64.9%.
As for `CP(=O)(Nc1ccc(Cl)cc1Cl)Oc1ccccc1` (configuration not stated), the figure is inactive: -15.6%; as for `Cc1cc(C)cc(OP(C)(=O)Nc2cccc(C(F)(F)F)c2)c1` (configuration not stated), inactive: -0.11%.
The figure for `O=C1C(O)=C([N+](=O)[O-])C(=O)C(O)=C1[N+](=O)[O-]` is inactive: 0.65%; for `COc1ccc(OP(C)(=O)Nc2ccccc2Br)cc1` (configuration not stated) it is inactive: -9.09%; for `COc1ccccc1OP(C)(=O)Nc1ccc(C)c(C)c1` (configuration not stated) it is inactive: -7.72%.
The figure for `O=[N+]([O-])c1cc([N+](=O)[O-])c(Nc2ccccn2)c([N+](=O)[O-])c1` is inactive: -1.6%.
With `Cc1c(NP(C)(=O)Oc2ccc(C(C)C)cc2)c(=O)n(-c2ccccc2)n1C` (configuration not stated), the inhibition is inactive: -7.22%.
The figure for `CCc1ccc(OP(C)(=O)O)cc1` is inactive: -4.8%.
With `COc1ccccc1OP(C)(=O)Nc1ccc(C)cc1C` (configuration not stated), the inhibition is inactive: -12.1%.
As for `CP(=O)(Nc1ccccn1)Oc1ccccc1` (configuration not stated), the figure is inactive: -23%; as for `COc1ccccc1OP(C)(=O)Nc1ccc(Br)cc1` (configuration not stated), inactive: -8.2%; as for `COc1ccc(OP(C)(=O)Nc2ccccn2)cc1` (configuration not stated), inactive: -5.45%.
As for `CP(=O)(Nc1ccc(Cl)cc1)Oc1ccc(F)cc1` (configuration not stated), the figure is inactive: -12.2%.
Turning to `CC(C)(C)c1ccc(OP(C)(=O)O)cc1`, the inhibition was inactive: -7.34%.
The figure for `COc1ccccc1OP(C)(=O)Nc1ccccc1Br` (configuration not stated) is inactive: -6.84%.
As for `CN(C)C(=O)c1c([N+](=O)[O-])cc([N+](=O)[O-])cc1[N+](=O)[O-]`, the figure is inactive: 0.37%; as for `COc1ccc(OP(C)(=O)Nc2ccc(Br)cc2)cc1` (configuration not stated), inactive: -4.9%; as for `CCc1ccc(OP(C)(=O)Nc2cccnc2)cc1` (configuration not stated), inactive: 7.25%.
`CP(=O)(Oc1ccccc1)N1CCOC1=O` (configuration not stated): the inhibition is inactive: -26.4%.
With `COc1ccccc1OP(C)(=O)Nc1c(C)n(C)n(-c2ccccc2)c1=O` (configuration not stated), the inhibition was inactive: -19.8%.
The figure for `CP(=O)(OC12CC3CC(CC(C3)C1)C2)OC12CC3CC(CC(C3)C1)C2` is inactive: -1.4%; for `CCOC(=O)c1ccc(NP(C)(=O)Oc2ccc(Cl)cc2)cc1` (configuration not stated) it is inactive: -2.86%.
In the case of `O=[N+]([O-])c1cc([N+](=O)[O-])c(NCC2CCS(=O)(=O)C2)c([N+](=O)[O-])c1` (configuration not stated), the inhibition was inactive: -2.18%.
The figure for `Cc1cc(-c2cccc3ccccc23)c(C)cn1.O=[N+]([O-])c1cc([N+](=O)[O-])c(O)c([N+](=O)[O-])c1` is inactive: -9.07%; for `O=[N+]([O-])c1ccc(OP2(=O)COCCO2)cc1` (configuration not stated) it is inactive: -17.3%; for `O=C(OC1CN2CCC1CC2)c1cccc(Cl)c1` (configuration not stated) it is active: 85.8%.
As for `Cc1c(C(c2ccc3c(c2)OCO3)c2c(C)n(C)n(-c3ccccc3)c2=O)c(=O)n(-c2ccccc2)n1C.O=[N+]([O-])c1cc([N+](=O)[O-])c(O)c([N+](=O)[O-])c1`, the figure is inactive: -10.1%.
The figure for `CN(C)C1(CNC(=O)c2ccc(Cl)c(S(N)(=O)=O)c2)CCCCC1` is inactive: -4.38%.
Take `COc1ccc(OP(C)(=O)Nc2cccc(Br)c2)cc1` (configuration not stated): the inhibition is inactive: 2.48%.
The figure for `COc1ccc(NP(C)(=O)Oc2ccccc2OC)cc1` (configuration not stated) is inactive: 8.5%; for `CP(=O)(Nc1ccc2c(c1)OCCO2)Oc1ccccc1` (configuration not stated) it is inactive: 3.54%; for `Cc1ccccc1NP(C)(=O)Nc1ccccc1C` it is inactive: -21.8%.
The figure for `CP(=O)(Nc1ccc(SC(F)(F)F)cc1)Oc1ccc(F)cc1` (configuration not stated) is inactive: 6.78%; for `CCOP(C)(=S)SCC(=O)NC(C)(CC)C(=O)O` (configuration not stated) it is inactive: -14.8%; for `O=C(OC1CN2CCC1CC2)c1ccc([N+](=O)[O-])cc1` (configuration not stated) it is inactive: -8.19%.
The figure for `COc1ccc2c(c1O)-c1c(O)c(OC)cc3c1[C@H](C2)[N+](C)(C)CC3.O=[N+]([O-])c1cc([N+](=O)[O-])c([O-])c([N+](=O)[O-])c1[O-]` is inactive: -3.31%; for `O=[N+]([O-])c1cc([N+](=O)[O-])c(Nc2ccc(Cl)cc2)c([N+](=O)[O-])c1` it is inactive: 27.1%.
For `CC(C)c1ccc(OP(C)(=O)Nc2ccc(SC(F)(F)F)cc2)cc1` (configuration not stated), the inhibition was inactive: 5.89%.
On to `CP(=O)(Nc1ccccc1F)Oc1ccccc1` (configuration not stated), for which the inhibition is inactive: -6.01%.
The figure for `O=C(OC1CN2CCC1CC2)c1ccccc1` (configuration not stated) is active: 88.5%; for `Cc1c([N+](=O)[O-])cc([N+](=O)[O-])c(Br)c1[N+](=O)[O-]` it is inactive: -3.58%.
On to `CCCCCOc1ccc(NP(C)(=O)Oc2ccc(Cl)cc2Cl)cc1` (configuration not stated), for which the inhibition is inactive: -0.59%.
Turning to `O=[N+]([O-])c1cc([N+](=O)[O-])c(OC2CCCCC2O)c([N+](=O)[O-])c1` (configuration not stated), the inhibition was inactive: -5.64%.
The figure for `CP(=O)(Nc1ccccc1)Oc1ccc(F)cc1` (configuration not stated) is inactive: -15%; for `COc1ccc(OP(C)(=O)Nc2ccc(SC(F)(F)F)cc2)cc1` (configuration not stated) it is inactive: 2.95%; for `CCOC(=O)c1ccc(NP(C)(=O)Oc2ccc(F)cc2)cc1` (configuration not stated) it is inactive: 0.1%.
For `CC1=NCCc2c1[nH]c1ccccc21.O=[N+]([O-])c1cc([N+](=O)[O-])c(O)c([N+](=O)[O-])c1`, the inhibition is inactive: 5.81%.
On to `O=C(O)c1cccc(Nc2c([N+](=O)[O-])cc([N+](=O)[O-])cc2[N+](=O)[O-])c1`, for which the inhibition was inactive: -10.5%.
The figure for `CP(=O)(Nc1cccc(Br)c1)Oc1ccccc1` (configuration not stated) is inactive: -4.84%.
With `Cc1cc(C)cc(OP(C)(=O)Nc2ccccn2)c1` (configuration not stated), the inhibition is inactive: 12.5%.
Turning to `Cc1ccc(C)c(NP(C)(=O)Oc2ccccc2)c1` (configuration not stated), the inhibition is inactive: -30%.
Regarding `O=C(OC1CN2CCC1CC2)c1ccc(Cl)cc1` (configuration not stated), the inhibition is active: 64.2%.
As for `COc1ccccc1OP(C)(=O)Nc1cccc(Br)c1` (configuration not stated), the figure is inactive: -9.68%; as for `COc1cc(C(=O)NCC2(N3CCOCC3)CCCCC2)cc(Cl)c1OC(C)C`, inactive: 13.4%.
As for `Cc1cc(C)cc(OP(C)(=O)Nc2ccc(C)cc2C)c1` (configuration not stated), the figure is inactive: -4.52%.
As for `CCOC(=O)c1ccc(NP(C)(=O)Oc2cc(C)cc(C)c2)cc1` (configuration not stated), the inhibition was inactive: 9.04%.
The figure for `O=[N+]([O-])c1cc([N+](=O)[O-])c(-c2cnn(-c3ccccc3)c2)c([N+](=O)[O-])c1` is inactive: 15.7%; for `Cc1nc2ccc3ccccc3c2s1.O=[N+]([O-])c1cc([N+](=O)[O-])c(O)c([N+](=O)[O-])c1` it is inactive: 9.31%; for `O=[N+]([O-])c1cc([N+](=O)[O-])c(-n2nnc3ccccc32)c([N+](=O)[O-])c1` it is inactive: -4.71%.
The figure for `CN(Cc1cccnc1)C(=O)COc1ccc(Cl)c(Cl)c1.O=[N+]([O-])c1cc([N+](=O)[O-])c(O)c([N+](=O)[O-])c1` is inactive: -11.3%; for `COc1ccccc1OP(C)(=O)Nc1c(C)cccc1C` (configuration not stated) it is inactive: -6.12%.
With `CP(=O)(Nc1ccc(SC(F)(F)F)cc1)Oc1ccccc1` (configuration not stated), the inhibition was inactive: 11.7%.
In the case of `CCCOc1ccc(NP(C)(=O)Oc2ccc(Cl)cc2)cc1` (configuration not stated), the inhibition was inactive: -2.27%.
Turning to `CCOC(=O)C(CC)C1=NC(C)(C)Cc2ccccc21.O=[N+]([O-])c1cc([N+](=O)[O-])c(O)c([N+](=O)[O-])c1` (configuration not stated), the inhibition was inactive: -2.21%.
The figure for `O=[N+]([O-])c1cc([N+](=O)[O-])c(Nc2nnnn2CCO)c([N+](=O)[O-])c1` is inactive: -6.87%; for `CC1=C2N=C(C=C3N=C(C(C)=C4[N-][C@@](C)([C@@H]5N=C1[C@](C)(CCC(=O)NC[C@@H](C)OP(=O)([O-])O[C@H]1[C@@H](O)[C@@H](n6cnc7cc(C)c(C)cc76)O[C@@H]1CO)[C@H]5CC(N)=O)[C@@](C)(CC(N)=O)[C@@H]4CCC(N)=O)[C@@](C)(CC(N)=O)[C@@H]3CCC(N)=O)C(C)(C)[C@@H]2CCC(N)=O.[C-]#N.[Co+3]` it is inactive: -20.8%; for `CN(C)C1(CNC(=O)c2ccc(S(C)(=O)=O)cc2)CCCCC1` it is inactive: -7.79%.
The figure for `CP(=S)(Nn1cnnc1)Oc1ccccc1` (configuration not stated) is inactive: -4.78%; for `COc1ccccc1OP(C)(=O)Nc1ccccc1` (configuration not stated) it is inactive: -14.3%.
The figure for `CP(=O)(Nc1ccccc1Br)Oc1ccccc1` (configuration not stated) is inactive: -6.76%.
Consider `CCCCOc1ccc(C(=O)NCC2(N3CCCCC3)CCCCC2)cc1OC`, for which the inhibition is inactive: -13.1%.
As for `CCOP(C)(=S)SCC(=O)NC(C)C(=O)O` (configuration not stated), the figure is inactive: 1.91%.
In the case of `O=[N+]([O-])c1cc([N+](=O)[O-])c(O)c([N+](=O)[O-])c1.c1ccc(Oc2ccncc2)cc1`, the inhibition is inactive: -4.94%.
As for `CCOC(=O)c1ccc(NP(C)(=O)Oc2ccc(OC)cc2)cc1` (configuration not stated), the figure is inactive: 1.99%; as for `CP(=O)(Nc1ccccn1)Oc1ccc(Cl)cc1` (configuration not stated), inactive: -3.74%.
As for `CP(=O)(Oc1ccccc1)OC(c1ccccc1)C(F)(F)F` (configuration not stated), the figure is inactive: 8.88%; as for `CP(=O)(Nc1ccc(SC(F)(F)F)cc1)Oc1ccc(Cl)cc1` (configuration not stated), inactive: 0.65%; as for `Cc1cccc(C)c1OP(C)(=O)Nc1ccc(SC(F)(F)F)cc1` (configuration not stated), inactive: -6.79%.
`Cc1ccc(Nc2c([N+](=O)[O-])cc([N+](=O)[O-])cc2[N+](=O)[O-])cc1`: the inhibition was inactive: -15.5%.
Consider `Cc1cc(C)cc(OP(C)(=O)Nc2ccc(SC(F)(F)F)cc2)c1` (configuration not stated), for which the inhibition was inactive: -8.39%.
As for `CCc1ccc(OP(C)(=O)N2CCN(c3ccc([N+](=O)[O-])cc3)CC2)cc1` (configuration not stated), the figure is inactive: 12.4%; as for `CP(=O)(NC(=O)Nc1ccccc1)Oc1ccccc1` (configuration not stated), inactive: 12.5%; as for `O=C(COc1ccccc1)OC1CN2CCC1CC2` (configuration not stated), active: 55.1%.
Regarding `O=C(OC1CN2CCC1CC2)C12CC3CC(CC(C3)C1)C2` (configuration not stated), the inhibition is active: 99%.
As for `CCOC(=O)c1ccc(NP(C)(=O)Oc2ccccc2)cc1` (configuration not stated), the figure is inactive: -14.5%.
As for `Cc1ccc(NP(C)(=O)Oc2ccccc2)c(C)c1` (configuration not stated), the figure is inactive: -31.6%; as for `COc1ccccc1OP(C)(=O)Nc1ccc(C)cc1` (configuration not stated), inactive: -20.7%; as for `COc1ccc(OP(C)(=O)Nc2cccc(F)c2)cc1` (configuration not stated), inactive: 2.57%.
The figure for `COc1ccccc1OP(C)(=O)Nc1cc(Cl)ccc1C` (configuration not stated) is inactive: 1.51%; for `Cc1cc(C)cc(OP(C)(N)=O)c1` (configuration not stated) it is inactive: 3.65%.
For `O=[N+]([O-])c1cc([N+](=O)[O-])c(Nc2cccnc2)c([N+](=O)[O-])c1`, the inhibition was inactive: 12.9%.
As to `COc1cc(C(=O)NCC2(N3CCOCC3)CCCCC2)ccc1OCC(C)C`, the inhibition was inactive: -12%.
Take `Cc1cccc(C)c1OP(C)(N)=O` (configuration not stated): the inhibition is inactive: -0.68%.
Turning to `CC(C)(C)c1ccc(OP(C)(=O)Nc2ccc(SC(F)(F)F)cc2)cc1` (configuration not stated), the inhibition was inactive: 2.82%.
The figure for `O=[N+]([O-])c1ccc2c(c1)C=Nc1ccccc1O2` is inactive: 4.48%.
